Data published in patent US20120190579A1, “Functionalisation of Solid Substrates” (priority 2009, published 2012).

Conditions: glutathione 1 mM, 37° C., 4 h, pH 7.4 (20 mM HEPES, 100 mM KCl)

Substance: GrB2-SH2 Domain L111C/Dibromomaleimide/Glutathione Adduct
- cleavage of adduct to Grb2-SH2 (L111C): quantitative
